# Apparent affinities of Ab-14 variants for a coronavirus HR2 peptide

Antigen: PDVDLGDISGINAS, a 14-residue peptide of the SARS-CoV-2 spike HR2 region.

Ab-14 is the parent antibody, in scFv form: VH, then the linker GGGGSGGGGSGGGGS, then VL. The heavy chain is unchanged in all variants.
VH: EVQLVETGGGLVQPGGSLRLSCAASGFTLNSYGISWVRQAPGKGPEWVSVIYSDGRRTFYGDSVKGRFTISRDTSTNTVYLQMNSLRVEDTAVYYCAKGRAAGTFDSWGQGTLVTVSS
VL: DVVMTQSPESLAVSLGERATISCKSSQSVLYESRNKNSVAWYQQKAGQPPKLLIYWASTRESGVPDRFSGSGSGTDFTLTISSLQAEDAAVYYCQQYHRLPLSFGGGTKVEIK

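The starting antibody came from a phage panning campaign against this peptide. The variants were designed computationally from a first round of random CDR variants and then made and measured. Their group label is 14L_Rand (Rand: our label for a block that the file lists under HC and that is probably the random mutants of the ten best first-round binders). AlphaSeq pools MATa yeast showing the antibodies with MATalpha yeast showing the peptide. Mating (16 h, 30 °C) was followed by selection of diploids and sequencing of their barcodes. Each replicate has its own calibration line, from reference interactions of the BCL2 family. There are six technical replicates.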

Variants are written as CDR1, CDR2 and CDR3 of the light chain (limits as in the source). Parent: KSSQSVLYESRNKNSVA, WASTRES, QQYHRLPLS.
Affinities are written as log10 Kd with Kd in nM; a lower number is a better binder.
"n.d." marks a missing value. The strain was present, yet no cells mated with the target were sequenced in that replicate, which points to weak or no binding.
Background: pairings of all light chain designs with three empty control strains gave a value in 4% of cases (median 2.64, 5th percentile 1.59). Values in that range, when seen in few replicates, are hard to tell from nonspecific mating. For each scFv, signals with the empty controls are counted beside the result, with their mean in brackets.

{"CDR-L1": "KQSQSVLYESRNKNSVA", "CDR-L2": "DASTRSS", "CDR-L3": "QQYHRLPLS", "log10 Kd, replicates": "0.29 0.22 0.10 -0.04 0.39 0.39", "empty controls": "6/18 (2.94)"}
{"CDR-L1": "KTSQSVLFESRNKNSVA", "CDR-L2": "DASTRES", "CDR-L3": "QQFHRLPLS", "log10 Kd, replicates": "0.87 0.69 0.68 0.94 0.59 0.59", "empty controls": "1/18 (2.48)"}
{"CDR-L1": "KQSQSVLYESRNKNSVG", "CDR-L2": "DASTRWS", "CDR-L3": "QQYHRLPLS", "log10 Kd, replicates": "1.66 2.32 1.16 2.38 1.24 1.77", "empty controls": "1/18 (1.97)"}
{"CDR-L1": "KFSQSVLYESRTKNSVA", "CDR-L2": "NASTRES", "CDR-L3": "QQYHILPLS", "log10 Kd, replicates": "-0.06 -0.05 0.09 0.13 -0.23 0.06", "empty controls": "2/18 (2.07)"}
{"CDR-L1": "KSSISYLYESRNKNSVY", "CDR-L2": "EASTRES", "CDR-L3": "QQYHRLPLS", "log10 Kd, replicates": "n.d. n.d. n.d. n.d. n.d. n.d.", "empty controls": "0/18"}
{"CDR-L1": "KFSESVLYESRTINSVL", "CDR-L2": "NASTREV", "CDR-L3": "QQYHRLPLS", "log10 Kd, replicates": "n.d. n.d. n.d. n.d. n.d. n.d.", "empty controls": "0/18"}
{"CDR-L1": "KSSQSFLYESRNKNSVA", "CDR-L2": "GNSTRES", "CDR-L3": "QQYHRSTLS", "log10 Kd, replicates": "n.d. 2.06 n.d. n.d. n.d. 2.00", "empty controls": "0/18"}
{"CDR-L1": "KSGQGVLYESRNKNSVA", "CDR-L2": "GAWTRES", "CDR-L3": "QQYHRLPLS", "log10 Kd, replicates": "0.68 0.28 0.40 0.40 0.46 0.28", "empty controls": "0/18"}
{"CDR-L1": "KLRQSTLYESRNKNSVA", "CDR-L2": "WASTRES", "CDR-L3": "QQYHRLPLR", "log10 Kd, replicates": "2.25 2.14 n.d. 2.14 2.56 2.58", "empty controls": "1/18 (1.75)"}
{"CDR-L1": "KSSKSVLFESRNKNSVA", "CDR-L2": "CASTRES", "CDR-L3": "QQYHQLPLR", "log10 Kd, replicates": "n.d. n.d. 1.88 n.d. n.d. n.d.", "empty controls": "1/18 (2.00)"}
{"CDR-L1": "SSMQSVLYESRNKNSTA", "CDR-L2": "HESTRED", "CDR-L3": "QKYHRPPLS", "log10 Kd, replicates": "n.d. n.d. n.d. n.d. n.d. n.d.", "empty controls": "0/18"}
{"CDR-L1": "KSSQSWLYESRNKNSVA", "CDR-L2": "GASSRES", "CDR-L3": "QQYHRLPLS", "log10 Kd, replicates": "0.16 -0.13 -0.33 -0.37 0.13 0.05", "empty controls": "0/18"}
{"CDR-L1": "KSSQSVLFESRNANSVA", "CDR-L2": "DALTRES", "CDR-L3": "QQYHRLPLS", "log10 Kd, replicates": "-0.10 0.24 -0.13 0.24 0.31 -0.20", "empty controls": "1/18 (1.00)"}
{"CDR-L1": "KFGQGVLYESRNKNSRA", "CDR-L2": "GASTRES", "CDR-L3": "QQYHRLPLS", "log10 Kd, replicates": "n.d. n.d. n.d. n.d. n.d. n.d.", "empty controls": "0/18"}
{"CDR-L1": "KQSQSVLYESRNKNSVA", "CDR-L2": "MASTRES", "CDR-L3": "QQYHRLPLS", "log10 Kd, replicates": "0.83 1.03 0.86 0.79 1.44 0.88", "empty controls": "1/18 (2.80)"}
{"CDR-L1": "KSGQGVLYESRNKNSVA", "CDR-L2": "GALTRES", "CDR-L3": "QQYRRLPLS", "log10 Kd, replicates": "0.56 0.48 0.38 0.14 0.93 0.87", "empty controls": "0/18"}
{"CDR-L1": "HSEPSVLYESRNKWSVA", "CDR-L2": "NASYRES", "CDR-L3": "VQYHRLPLS", "log10 Kd, replicates": "n.d. n.d. n.d. n.d. n.d. n.d.", "empty controls": "0/18"}
{"CDR-L1": "KSSISYLYESRNKNSVA", "CDR-L2": "EASTRES", "CDR-L3": "HQYHRLPLS", "log10 Kd, replicates": "n.d. n.d. n.d. n.d. n.d. n.d.", "empty controls": "2/18 (1.00)"}
{"CDR-L1": "KSGQGVLYESRNQNSVA", "CDR-L2": "GASTEES", "CDR-L3": "QQYHRLPLS", "log10 Kd, replicates": "1.06 1.51 1.23 2.28 1.03 1.53", "empty controls": "0/18"}

Top 2 of the variants detected in all replicates, tightest first:

CDR-L1	CDR-L2	CDR-L3	log10 Kd, replicates	empty controls
KSSQSWLYESRNKNSVA	GASSRES	QQYHRLPLS	0.16 -0.13 -0.33 -0.37 0.13 0.05	0/18
KFSQSVLYESRTKNSVA	NASTRES	QQYHILPLS	-0.06 -0.05 0.09 0.13 -0.23 0.06	2/18 (2.07)

The parent sequence was in this pool as ten entries: three were never detected, three once, and four in most replicates, with averages from 0.34 to 2.37.
A sequence measured in both rounds can read differently, since the two assays cover different ranges.
The authors' rule: three or more of the six replicates give a measured affinity, fewer mean a poor binder.

Values reported by Li et al. 2023, doi:10.1038/s41467-023-39022-2 (FLAb copy).